Tested on: normal heart function
Conditions: sham-operated mice

O=C(O)c1sc2cc(Cl)ccc2c1Cl [BT2, 3,6-dichlorobenzo[b]thiophene-2-carboxylic acid]
mice body weight (BT2 6 weeks): not affected
toxicity on normal heart function and body weight (BT2 6 weeks): no toxicity
EF and LVIDs (BT2 6 weeks daily oral gavage vs vehicle): no significant changes
